Data published in PubChem BioAssay (NCI).
“And” between values parts separate entries of the source, which are not always exact repeats. Identical values can stand only once.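 Five compound concentrations were applied to cells in 96-well plates for 48 hours; endpoints were derived by simple linear interpolation of the resulting dose-response curve. At the GI50, growth is halved. Definition used: TGI = concentration required for complete inhibition of growth.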

Columns and labels:
Assay in all cases: NCI tumour cell line growth inhibition, 48 h
LOX IMVI melanoma = system: LOX IMVI melanoma
RXF 393 renal = system: RXF 393 renal
MDA-MB-435 = system: MDA-MB-435
A498 renal = system: A498 renal
SNB-75 CNS = system: SNB-75 CNS
MALME-3M melanoma = system: MALME-3M melanoma
OVCAR-3 ovarian = system: OVCAR-3 ovarian
LXFL 529 NSCLC = system: LXFL 529 NSCLC
HOP-92 NSCLC = system: HOP-92 NSCLC
DMS 273 small cell lung = system: DMS 273 small cell lung
HL-60(TB) leukemia = system: HL-60(TB) leukemia
NCI-H522 lung = system: NCI-H522 lung
SK-MEL-5 melanoma = system: SK-MEL-5 melanoma
SNB-78 CNS = system: SNB-78 CNS
MOLT-4 leukemia = system: MOLT-4 leukemia
HCT-15 colon = system: HCT-15 colon
CCRF-CEM leukemia = system: CCRF-CEM leukemia
SW-620 colon = system: SW-620 colon
MDA-N = system: MDA-N
K-562 leukemia = system: K-562 leukemia
HOP-18 NSCLC = system: HOP-18 NSCLC
HCT-116 colon = system: HCT-116 colon
T-47D breast = system: T-47D breast
UACC-62 melanoma = system: UACC-62 melanoma
KM20L2 colon = system: KM20L2 colon
BT-549 breast = system: BT-549 breast
RPMI-8226 leukemia = system: RPMI-8226 leukemia
SR leukemia = system: SR leukemia

In the case of C[C@@H](O)[C@H]1/C=C/C=C\C(=O)O[C@@H]2C[C@H]3O[C@@H]4[C@@H]5OC5(C)CCC4(COC(=O)[C@H]4O[C@]4(C)[C@@H](O)CO1)[C@]2(C)[C@]31CO1 (stereo partly specified), the TGI (LOX IMVI melanoma) is reported as 1.16 nM and 11.5 nM, the TGI (RXF 393 renal) is reported as 3.58 nM and 16.2 nM and the GI50 (MDA-MB-435) is reported as 0.375 nM. For the same compound, the TGI (MDA-MB-435) was 2.01 nM, the TGI (A498 renal) was 13.2 nM and 62.9 nM and the TGI (SNB-75 CNS) was 10.8 nM and 48.3 nM. The TGI (MALME-3M melanoma) was 9.19 nM and 15.5 nM, the TGI (OVCAR-3 ovarian) was 6.7 nM and 24.7 nM and the GI50 (LXFL 529 NSCLC) was 2.67 nM. For the same compound, the TGI (LXFL 529 NSCLC) was 100 nM, the TGI (HOP-92 NSCLC) was 14.7 nM and 53 nM and the GI50 (DMS 273 small cell lung) was 8.72 nM. The TGI (DMS 273 small cell lung) was 27.3 nM and 15.4 nM, the TGI (HL-60(TB) leukemia) was 1.02 nM and the TGI (NCI-H522 lung) was 0.594 nM. For the same compound, the TGI (SK-MEL-5 melanoma) was 1.99 nM and 12.7 nM, the GI50 (SNB-78 CNS) was 21.1 nM and 16.2 nM and the TGI (SNB-78 CNS) was 64.7 nM and 45.6 nM. For the same compound, the TGI (MOLT-4 leukemia) was 0.919 nM, the TGI (HCT-15 colon) was 20.7 nM and 48.1 nM and the GI50 (CCRF-CEM leukemia) was 0.506 nM. For the same compound, the TGI (CCRF-CEM leukemia) was 81.5 nM and 26.6 nM, the TGI (SW-620 colon) was 85 nM and 128 nM and the GI50 (MDA-N) was 0.336 nM. For the same compound, the TGI (MDA-N) was 1.34 nM, the GI50 (K-562 leukemia) was 0.598 nM and the TGI (K-562 leukemia) was 49.6 nM and 103 nM. The GI50 (HOP-18 NSCLC) was 39.2 nM and 179 nM, the TGI (HOP-18 NSCLC) was 278 nM and 1210 nM and the TGI (HCT-116 colon) was 54.1 nM and 28.3 nM. For the same compound, the TGI (T-47D breast) was 1.33 nM, the TGI (UACC-62 melanoma) was 10.1 nM and 70 nM and the GI50 (KM20L2 colon) was 30.2 nM and 27 nM. For the same compound, the TGI (BT-549 breast) was 3.16 nM, the TGI (RPMI-8226 leukemia) was 14.8 nM and 18 nM and the GI50 (SR leukemia) was 0.473 nM.
